{"sequences": {"note": "By UniProt entry, the sequences of proteins in these tests, tags left out.", "UniProt P21673, whole entry, looked up": "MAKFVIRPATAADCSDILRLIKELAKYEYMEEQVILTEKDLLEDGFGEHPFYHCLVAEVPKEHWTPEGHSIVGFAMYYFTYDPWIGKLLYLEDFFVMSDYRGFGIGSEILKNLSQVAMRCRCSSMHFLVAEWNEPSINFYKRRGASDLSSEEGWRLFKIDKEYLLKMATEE"}, "source": "ChEMBL document CHEMBL1134460", "about": "“Terminally alkylated polyamine analogues as chemotherapeutic agents” (J Med Chem, 2001)", "target": "Diamine acetyltransferase 1 (Homo sapiens, UniProt P21673)", "test": "Inhibitory activity against human SSAT"}
{"smiles": "CCNCCCNCCCNCCCOP(C)(=O)O", "values": [{"measurement": "Ki", "value": 50, "unit": "µM"}]}
